Test results: PMC7499187 (CPT: Pharmacometrics & Systems Pharmacology, 2020)

Experiment: Semimechanistic population PK model
Assay type: in vivo, human
Conditions: well-stirred model

fraction of drug entering the liver that escaped hepatic metabolism, Fh: 0.719
SMILES: CCN1CCN(Cc2ccc(Nc3ncc(F)c(-c4cc(F)c5nc(C)n(C(C)C)c5c4)n3)nc2)CC1 [Abemaciclib]
